Measured values from patent publication US20180036445A1.

Tests used:
[1] = biological target: Fab (sample of Example 4); test: static binding capacity in filter plate, after 24 h in 100 mM peracetic acid, 90 min incubation with Fab, relative to PBS control
[2] = biological target: Fab (sample of Example 4); test: static binding capacity in filter plate, after 4 h in 0.6% formic acid, 3% H2O2, 90 min incubation with Fab, relative to PBS control
[3] = biological target: Fab (sample of Example 4); test: static binding capacity in filter plate, after 4 h in 5% H2O2, 10 min incubation with Fab, relative to PBS control
[4] = biological target: Fab (sample of Example 4); test: static binding capacity in filter plate, after 24 h in 5% H2O2, 90 min incubation with Fab, relative to PBS control
[5] = biological target: Fab (sample of Example 4); test: static binding capacity in filter plate, after 24 h in 0.6% formic acid, 3% H2O2, 10 min incubation with Fab, relative to PBS control
[6] = biological target: Fab (sample of Example 4); test: static binding capacity in filter plate, after 4 h in 500 mM peracetic acid, 10 min incubation with Fab, relative to PBS control
[7] = biological target: Fab (sample of Example 4); test: static binding capacity in filter plate, after 24 h in 0.6% formic acid, 3% H2O2, 90 min incubation with Fab, relative to PBS control
[8] = biological target: Fab (sample of Example 4); test: static binding capacity in filter plate, after 4 h in 0.6% formic acid, 3% H2O2, 10 min incubation with Fab, relative to PBS control

B1: recombinant Protein L (rPrL) (protein)
chain: AVENKEETPETPETDSEEEVTIKANLIFANGSTQTAEFKGTFEKATSEAYAYADTLKKDNGEYTVDVADKGYTLNIKFAGKEKTPEEPKEEVTIKANLIYADGKTQTAEFKGTFEEATAEAYRYADALKKDNGEYTVDVADKGYTLNIKFAGKEKTPEEPKEEVTIKANLIYADGKTQTAEFKGTFEEATAEAYRYADLLAKENGKYTVDVADKGYTLNIKFAGKEKTPEEPKEEVTIKANLIYADGKTQTAEFKGTFAEATAEAYRYADLLAKENGKYTADLEDGGYTINIRFAGKKVDEKPEE
Relative remaining SBC (%) [1]: 105%
Relative remaining SBC (%) [2]: 105%
Relative remaining SBC (%) [3]: 104%
Relative remaining SBC (%) [4]: 105%
Relative remaining SBC (%) [5]: 104%
Relative remaining SBC (%) [6]: 106%
Relative remaining SBC (%) [7]: 106%
Relative remaining SBC (%) [8]: 108%
